Results on 1 molecule are retold here after PMC7064328, “Evaluation of Maternal, Embryo, and Placental Effects in CD-1 Mice following Gestational Exposure to Perfluorooctanoic Acid (PFOA) or Hexafluoropropylene Oxide Dimer Acid (HFPO-DA or GenX)” (Environmental Health Perspectives, 2020).

SMILES strings stand for the structures.

Series [1] in a line: Internal dosimetry of PFOA and GenX in maternal serum, maternal liver, amniotic fluid and whole embryos (UPLC-MS/MS). The series is classed as in vivo, mouse (CD-1). As to the method:
Maternal serum, maternal liver, amniotic fluid, and whole embryos were analyzed for PFOA and GenX concentrations using methods similar to those previously reported ([Conley et al. 2019]; [McCord et al. 2018]; [Reiner et al. 2009]; [Rushing et al. 2017]). Solid tissues were homogenized in RODI water at a ratio of approximately 1:3 tissue mass (milligrams) to liquid volume (microliters). Maternal serum, amniotic fluid, and tissue homogenates ( 25μL ) were spiked with internal standard suspended in 0.1M formic acid in a denaturation step, followed by a subsequent protein crash using ice-cold acetonitrile. Samples were vortex mixed after addition of formic acid and acetonitrile and then centrifuged at 10,000×g for 5 min. Extract supernatants were separated using a Waters ACQUITY UPLC® (Waters Corporation) fitted with a Waters ACQUITY UPLC® BEH C18 Column ( 130Å; 1.7μm; 2.1mm×50mm ). Detection was performed using a Waters Quattro Premier™ XE tandem quadrupole mass spectrometer in negative ionization mode. Stable isotopes of PFOA ( C313 , MPFOA; Wellington Laboratories) or GenX ( C313 , M3HFPO-DA; Wellington Laboratories) were used as internal standards for quantification of vehicle control samples (run against a nine-point calibration curve of 0–100 ng/mL ) and experimental samples (run against a nine-point calibration curve of 200–20,000 ng/mL ). Vehicle control and dosed animal samples were quantified for both PFOA and GenX using respective isotope-labeled chemicals and calibration curves.

The test system of another series is Pregnant CD-1 mice. The series can be described thus: Clinical chemistry of dam serum and urine. The note with it: 10 mg/kg/d. Format: in vivo, mouse (CD-1). As to the method:
Dam livers, kidneys, and placentas were trimmed and embedded by the NIEHS Mouse Embryo Phenotyping Core. Tissues collected at necropsy were fixed in 4% PFA for 72 h and paraffin embedded, and 5-μm sections were prepared and stained with hematoxylin and eosin (H&E). Pathology was evaluated and a pathology review conducted by S.A.E. Diplomate American College of Veterinary Pathologists (DACVP). Pathology reviews were conducted as an informed approach analysis [e.g., nonblinded analysis; see Sills et al. ([2019])]. Select tissue slides were scanned using the AT2 Scanner (Aperio). Images were then captured for publication using the ImageScope software; version 12.3.0.5056 (Aperio). Serum and urine obtained from dams in Block 2 were analyzed using the AU480 clinical chemistry analyzer (Beckman Coulter Inc.). Reagents and calibration standards used to measure alkaline phosphatase (ALP), alanine aminotransferase (ALT), aspartate aminotransferase (AST), blood urea nitrogen (BUN), serum creatinine, urine creatinine, glucose (Glu), total protein (TP), triglyceride (Trig), high-density lipoprotein (HDL), cholesterol (Chol), and albumin (ALB) were purchased from Beckman Coulter Inc. Reagents for sorbitol dehydrogenase (SDH), total bile acid (TBA), and micro-TP were purchased from Sekisui Diagnostics. The reagent used to measure low-density lipoprotein (LDL) was purchased form Diazyme Laboratories.

The next series has as its system embryo–placenta unit. In words: Embryo/placental growth metrics (mixed-effect models). Format: in vivo, mouse (CD-1). The source says: From each uterus, first, viable embryos and their matched placentas were collected in succession within a horn and immediately snap frozen ( n=2–5 per litter ), and subsequent embryos were collected for growth measurements ( n=2–11 per litter ). Additional placentas were collected and placed in 4% paraformaldehyde (PFA) for histological analysis (Block 2 only). Amniotic fluid was collected by needle aspiration from litters euthanized at E11.5 and snap frozen in liquid nitrogen. Embryo livers were collected from litters euthanized at E17.5 and snap frozen in liquid nitrogen. Dam livers were weighed, a portion of the left lateral lobe was placed in 4% PFA for histology, and another portion of the same lobe was snap frozen in liquid nitrogen. A third liver section was obtained from Block 2 dams and fixed in McDowell and Trump’s fixative for electron microscopy (EM). Gross lesions were collected when observed and placed in 4% PFA for histology. Dam kidneys were removed, a cross section was prepared from the right kidney, a longitudinal section was prepared from the left kidney, and both sections were fixed in 4% PFA for histological analysis.
Gross observations were recorded at necropsy. Embryo sex was determined by polymerase chain reaction (PCR) amplification of the Sry gene (forward, 5′-[…]-3′, and reverse, 3′-[…]-5′) using a snipped portion of tissue (TransnetYX®, Inc.). Embryos and their placentas were weighed separately as wet tissue. Images of embryos were obtained on a Leica Z16 APO imaging scope, and embryo length was measured as snout-to-rump distance using FIJI ([Schindelin et al. 2012]) and Zen 2 Blue (Zeiss).
Embryo and placental metrics were analyzed using mixed-effect models and included a priori fixed effects of treatment group and litter size and a random-effects term for the dam using the lme4 package. Embryo and placental metrics included embryo weight, embryo length, placental weight, and embryo:placenta weight ratios, a meaningful predictor of fetal birth outcomes in humans ([Hayward et al. 2016]). To account for potential introduction of random effects, the study block (Block 1 or Block 2) and experimenter handling of embryo/placental tissues (Experimenter A or Experimenter B) were included as additional random effects. Models were fit in a stepwise procedure for random effects, and final models included treatment group and litter size as fixed effects using the lmerTest package ([Kuznetsova et al. 2017]). All final models included dam as a random effect but were allowed to vary in the inclusion of experimenter and experimental block random effects based on likelihood ratio test results. Point estimates and 95% CIs were determined from the final model using the Wald method. The number of individual observations for each outcome (embryo weight, placenta weight, and embryo:placenta weight ratio) and the number of litters evaluated in the mixed-effect models are shown in Table S1.

In a further series the test system is rats. The conditions noted are these: gestational exposure; ref Conley et al. 2019; cited from earlier work.

`N.O=C(O)C(F)(OC(F)(F)C(F)(F)C(F)(F)F)C(F)(F)F` (centres unmarked) [GenX, ammonium 2,3,3,3-tetrafluoro-2-(heptafluoropropoxy)propanoate]: the “GenX accumulation in liver, fold lower than PFOA” value in series [1] (2 mg/kg GenX vs 1 mg/kg PFOA, E11.5) was found to be 7.6 fold; in series [1] (2 mg/kg GenX vs 1 mg/kg PFOA, E17.5), 39.7 fold; in series [1] (10 mg/kg GenX vs 5 mg/kg PFOA, E17.5 (first mention)) it was 8.9 fold; in series [1] (10 mg/kg GenX vs 5 mg/kg PFOA, E17.5 (second mention)), 11.2 fold. Further, the “Serum Glu lower relative to controls” value with Pregnant CD-1 mice (E11.5, p=0.20) worked out at 18%. Besides, the “ALT increase relative to controls” value in the series with Pregnant CD-1 mice (Table 2 (E11.5), not statistically significant) was 200%. The “Embryo:Placental Weight Ratio, adjusted estimate (95% CI)” value with embryo–placenta unit (E11.5, 2 mg/kg/d) is given as 1.22 (0.66, 1.78); in the series on embryo–placenta unit (E11.5, 10 mg/kg/d), 1.08 (0.52, 1.64); in the series on embryo–placenta unit (E17.5, 2 mg/kg/d), 10.6 (7.5, 13.7); in the series with embryo–placenta unit (E17.5, 10 mg/kg/d), 9.5 (6.4, 12.7). Besides, the “Shift in embryo weight” value in the series with embryo–placenta unit (E17.5, 2 mg/kg/d) was -0.009 g; in the series with embryo–placenta unit (E17.5, 10 mg/kg/d), -0.042 g. Besides, the “Estimated increase in placental weight relative to controls” value in the series with embryo–placenta unit (E17.5, 10 mg/kg/d) is on record as 15.5 mg. Further, in the series with rats, the “LOAEL, up-regulated gene expression in PPAR signaling pathways in maternal and embryo liver” value is 1 mg/kg/day.
